The source of these data is patent publication US9725465B2, “Biaryl acetamide compounds and methods of use thereof” (Ambit Biosciences Corporation, priority 2013, dated 2017).

Assay [1] concerns Ba/F3 cells expressing FLT3-ITD-D835V.
Assay [2] deals with Ba/F3 cells expressing FLT3-ITD.
Assay [3] addresses FLT3-ITD-D835V (Homo sapiens (Human), UniProt P36888, D835V/INS600HVDFREYEYD). The experiment in a line: pFLT3 MSD assay, Ba/F3 FLT3-ITD-D835V. Type of assay: cell-based. The following applies: Ba/F3 FLT3-ITD-D835V cells, 2 hours, read-out: BaF3-FLT3-ITD-D835V pFlt3 IC50.
Assay [4] has as its target FLT3-ITD-F691L (Homo sapiens (Human), UniProt P36888, F691L/INS600HVDFREYEYD). The experiment in a line: pFLT3 MSD assay, Ba/F3 FLT3-ITD-F691L. Type of assay: cell-based. The note with it: Ba/F3 FLT3-ITD-F691L cells, 2 hours, read-out: BaF3-FLT3-ITD-F691L pFlt3 IC50.

Molecules are shown by their SMILES. pIC50: −log10 of the molar value.

As usually defined, the pIC50 is the negative decadic logarithm of the IC50, by convention in mol/L.

`Nc1nc2ccccc2nc1-c1ccc(CC(=O)Nc2cc(C3(C(F)(F)F)CC3)on2)cc1` [Example 7, 2-(4-(3-aminoquinoxalin-2-yl)phenyl)-N-(5-(1-(trifluoromethyl)cyclopropyl)isoxazol-3-yl)acetamide] had a pIC50 in assay [1] of less than 7.30.
Still for that read-out and setting: to `Cn1ccc2ncc(-c3ccc(CC(=O)Nc4cc(C5(C(F)(F)F)CC5)on4)cc3)nc21` [Example 9, 2-(4-(5-methyl-5H-pyrrolo[2,3-b]pyrazin-3-yl)phenyl)-N-(5-(1-(trifluoromethyl)cyclopropyl)isoxazol-3-yl)acetamide] belongs 7.70 to 8.00.
`COc1cc2nc(-c3ccc(CC(=O)Nc4cc(C5(C(F)(F)F)CC5)on4)c(F)c3)cnc2cc1OCCN1CCN(C)CC1` [Example 81, 2-(2-fluoro-4-(7-methoxy-6-(2-(4-methylpiperazin-1-yl)ethoxy)quinoxalin-2-yl)phenyl)-N-(5-(1-(trifluoromethyl)cyclopropyl)isoxazol-3-yl)acetamide]: the negative logarithm of the IC50 (pIC50) in assay [1] and in assay [2] was greater than 8.00 throughout.
With `COc1cc2nc(-c3ccc(CC(=O)Nc4cc(C5(C(F)(F)F)CC5)on4)c(F)c3)cnc2cc1OCCN1CCC(F)(F)C1` [Example 82, 2-(4-(6-(2-(3,3-difluoropyrrolidin-1-yl)ethoxy)-7-methoxyquinoxalin-2-yl)-2-fluorophenyl)-N-(5-(1-(trifluoromethyl)cyclopropyl)isoxazol-3-yl)acetamide], the negative-log IC50 (pIC50) in assay [1] and in assay [2] was greater than 8.00 each time.
Regarding `COc1cc2nc(-c3ccc(CC(=O)Nc4cc(C5(C(F)(F)F)CC5)on4)c(F)c3)cnc2cc1Br` [Example 83, 2-(4-(6-bromo-7-methoxyquinoxalin-2-yl)-2-fluorophenyl)-N-(5-(1-(trifluoromethyl)cyclopropyl)isoxazol-3-yl)acetamide], the pIC50 in assay [1] and in assay [2] was greater than 8.00 each time.
Turning to `COc1cc2nc(-c3ccc(CC(=O)Nc4cc(C5(C(F)(F)F)CC5)on4)c(F)c3)cnc2cc1CC(O)CO` (stereo not drawn) [Example 84, 2-(4-(6-(2,3-dihydroxypropyl)-7-methoxyquinoxalin-2-yl)-2-fluorophenyl)-N-(5-(1-(trifluoromethyl)cyclopropyl)isoxazol-3-yl)acetamide], the results for the negative logarithm of the IC50 (pIC50) in assay [1] and in assay [2] were less than 7.30 and greater than 8.00, respectively.
The matching figures for `COc1cc2nc(-c3ccc(CC(=O)Nc4cc(C5(C(F)(F)F)CC5)on4)c(F)c3)cnc2cc1NCCN1CCOCC1` [Example 85, 2-(2-fluoro-4-(7-methoxy-6-((2-morpholinoethyl)amino)quinoxalin-2-yl)phenyl)-N-(5-(1-(trifluoromethyl)cyclopropyl)isoxazol-3-yl)acetamide]: 7.70 to 8.00 and greater than 8.00.
On to `COc1cc2nc(-c3ccc(CC(=O)Nc4cc(C(C)(C)C)on4)c(F)c3)cnc2cc1OCCN1CCOCC1` [Example 92, N-(5-(tert-butyl)isoxazol-3-yl)-2-(2-fluoro-4-(7-methoxy-6-(2-morpholinoethoxy)quinoxalin-2-yl)phenyl)acetamide], for which the negative-log IC50 (pIC50) in assay [1] and in assay [2] was greater than 8.00 in each case.
`COc1cc2nc(-c3ccc(CC(=O)Nc4cc(C(C)(C)C(F)(F)F)on4)cc3)cnc2cc1OCCN1CCOCC1` [Example 93, 2-(4-(7-methoxy-6-(2-morpholinoethoxy)quinoxalin-2-yl)phenyl)-N-(5-(1,1,1-trifluoro-2-methylpropan-2-yl)isoxazol-3-yl)acetamide]: the negative logarithm of the IC50 (pIC50) in assay [1] and in assay [2] was greater than 8.00 in each case.
For the molecule `COc1cc2nc(-c3ccc(CC(=O)Nc4cc(C(C)(C)C(F)(F)F)nn4C)c(F)c3)cnc2cc1OCCN1CCOCC1` [Example 94, 2-(2-fluoro-4-(7-methoxy-6-(2-morpholinoethoxy)quinoxalin-2-yl)phenyl)-N-(1-methyl-3-(1,1,1-trifluoro-2-methylpropan-2-yl)-1H-pyrazol-5-yl)acetamide], the negative logarithm of the IC50 (pIC50) in assay [1] and in assay [2] was greater than 8.00 throughout.
As for `COc1cc2nc(-c3ccc(CC(=O)Nc4cc(C5(C(F)(F)F)CC5)on4)c(F)c3)cnc2cc1OCCN1CCOCC1(C)C` [Example 96, 2-(4-(6-(2-(3,3-dimethylmorpholino)ethoxy)-7-methoxyquinoxalin-2-yl)-2-fluorophenyl)-N-(5-(1-(trifluoromethyl)cyclopropyl)isoxazol-3-yl)acetamide], the pIC50 in assay [1] and in assay [2] was greater than 8.00 in each case.
As to `O=C(Cc1ccc(-c2cnc3[nH]c(C(=O)N4CC(O)C4)cc3c2)cc1F)Nc1cc(C2(C(F)(F)F)CC2)on1` [Example 111, 2-[2-fluoro-4-[2-(3-hydroxyazetidine-1-carbonyl)-1H-pyrrolo[2,3-b]pyridin-5-yl]phenyl]-N-[5-[1-(trifluoro-methyl)cyclopropyl]isoxazol-3-yl]acetamide], the pIC50 in assay [3], in assay [2] and in assay [4] was greater than 8.00 each time.
As for `O=C(Cc1ccc(-c2cnc3[nH]c(C(=O)NC4CNC4)cc3c2)cc1F)Nc1cc(C2(C(F)(F)F)CC2)on1` [Example 112, N-(azetidin-3-yl)-5-[3-fluoro-4-[2-oxo-2-[[5-[1-(trifluoromethyl)cyclo-propyl]isoxazol-3-yl]amino]ethyl]phenyl]-1H-pyrrolo[2,3-b]pyridine-2-carboxamide], the negative logarithm of the IC50 (pIC50) in assay [3] is 7.30 to 7.70; in assay [2], greater than 8.00; in assay [4], 7.30 to 7.70.
For `CN1CC(NC(=O)c2cc3cc(-c4ccc(CC(=O)Nc5cc(C6(C(F)(F)F)CC6)on5)c(F)c4)cnc3[nH]2)C1` [Example 113, 5-[3-fluoro-4-[2-oxo-2-[[5-[1-(trifluoromethyl)cyclo-propyl]isoxazol-3-yl]amino]ethyl]phenyl]-N-(1-methylazetidin-3-yl)-1H-pyrrolo[2,3-b]pyridine-2-carboxamide], the pIC50 in assay [3], in assay [2] and in assay [4] was greater than 8.00 each time.
`COc1cc2ncc(-c3ccc(CC(=O)Nc4cc(C5(C(F)(F)F)CC5)on4)c(F)c3)nc2cc1OCCCNC(C)=O` [Example 214, 2-[4-[7-(3-acetamidopropoxy)-6-methoxy-quinoxalin-2-yl]-2-fluoro-phenyl]-N-[5-[1-(trifluoromethyl)cyclo-propyl]isoxazol-3-yl]acetamide] showed a negative-log IC50 (pIC50) in assay [2] greater than 8.00.
Same read-out and setting: the figure for `COc1cc2nc(-c3ccc(CC(=O)Nc4cc(C5(C(F)(F)F)CC5)on4)c(F)c3)cnc2cc1OCCN1CCS(=O)(=O)CC1` [Example 216, 2-[4-[6-[2-(1,1-dioxo-1,4-thiazinan-4-yl)ethoxy]-7-methoxy-quinoxalin-2-yl]-2-fluoro-phenyl]-N-[5-[1-(trifluoromethyl)cyclo-propyl]isoxazol-3-yl]acetamide] is greater than 8.00.
On the same count and under the same terms, the figure for `COc1cc2nc(-c3ccc(CC(=O)Nc4cc(C5(C(F)(F)F)CC5)on4)c(F)c3)cnc2cc1OCCN1CC2CCC(C1)O2` [Example 244, 2-[2-fluoro-4-[7-methoxy-6-[2-(8-oxa-3-azabicyclo[3.2.1]octan-3-yl)ethoxy]quinoxalin-2-yl]phenyl]-N-[5-[1-(trifluoromethyl)cyclo-propyl]isoxazol-3-yl]acetamide] is greater than 8.00; for `COc1cc2nc(-c3ccc(CC(=O)Nc4cc(C(C)(C)C(F)(F)F)on4)c(F)c3)cnc2cc1OCC(C)(C)O` [Example 246, 2-[2-fluoro-4-[6-(2-hydroxy-2-methyl-propoxy)-7-methoxy-quinoxalin-2-yl]phenyl]-N-[5-(2,2,2-trifluoro-1,1-dimethyl-ethyl)isoxazol-3-yl]acetamide] it is greater than 8.00.
